Tested on: quiescent IMR-90 human lung fibroblasts
Settings: 24, 48, 72 hours

## CO[C@@]12[C@H](COC(N)=O)C3=C(C(=O)C(C)=C(N)C3=O)N1C[C@@H]1N[C@@H]12 [Mitomycin C, mitomycin C]
  time dependence of cytotoxicity against quiescent fibroblasts: time-dependent increases in cytotoxicity

Reference: patent US20060134602A1, “Methods of identifying cytotoxic effects in quiescent cells” (priority 2004, published 2006)
